Columns and labels:
Test in all cases: cell-based or functional assay
[1] = molecular target: PfRH5 from Plasmodium falciparum strain Dd2 (Plasmodium falciparum)
[2] = molecular target: PfRH5 from Plasmodium falciparum strain D10 (Plasmodium falciparum)
[3] = molecular target: PfRH5 from Plasmodium falciparum strain 7G8 (Plasmodium falciparum)

B1: H1H29149P2 (antibody, V domains shown)
VH: QVQLQESGPGLVKPSQTLSLTCTVSGGSISSGGYYWNWIRQHPGKGLEWIGYIYYSGSTYYNPSLKSRVTISVDTSKNQFSLKLGSVTAADTAVYYCARAPPYNWFDYWGQGTLVTVSS
VL: not shown
[1]
  Max growth inhibition (%): 50.3%

B2: H1H29163P2 (antibody, V domains shown)
VH: QVQLVQSGAEVKKPGASVKVSCKTSGYTFTAYYIHWVRQAPGQGLEWMGWINPNNGDTNYALRFQGRVTMTRDMSINTAYMELRGLRSDDTAVYYCARDDLAAAGIGWFDSWGQGTLVTVSS
VL: not shown
[2]
  Max growth inhibition (%): 71.8%

B3: H1H29187P2 (antibody, V domains shown)
VH: QVQLVESGGGVVQPGRFLRLSCAASGFTFSNSGMHWVRQAPGKGLEWVAGIWHDGSYKYYVDSVKGRFTISRDNSKNTLFLQMNSLRAEDTAVYYCARDDYYASGTSVDVWGQGTTVTVSS
VL: not shown
[3]
  Max growth inhibition (%): 71.8%

Source: patent publication US20210024625A1 (published 2021)
